The experiment deals with T1, Neprilysin (Rattus norvegicus, UniProt P07861).
T1 sequence (P07861 whole entry): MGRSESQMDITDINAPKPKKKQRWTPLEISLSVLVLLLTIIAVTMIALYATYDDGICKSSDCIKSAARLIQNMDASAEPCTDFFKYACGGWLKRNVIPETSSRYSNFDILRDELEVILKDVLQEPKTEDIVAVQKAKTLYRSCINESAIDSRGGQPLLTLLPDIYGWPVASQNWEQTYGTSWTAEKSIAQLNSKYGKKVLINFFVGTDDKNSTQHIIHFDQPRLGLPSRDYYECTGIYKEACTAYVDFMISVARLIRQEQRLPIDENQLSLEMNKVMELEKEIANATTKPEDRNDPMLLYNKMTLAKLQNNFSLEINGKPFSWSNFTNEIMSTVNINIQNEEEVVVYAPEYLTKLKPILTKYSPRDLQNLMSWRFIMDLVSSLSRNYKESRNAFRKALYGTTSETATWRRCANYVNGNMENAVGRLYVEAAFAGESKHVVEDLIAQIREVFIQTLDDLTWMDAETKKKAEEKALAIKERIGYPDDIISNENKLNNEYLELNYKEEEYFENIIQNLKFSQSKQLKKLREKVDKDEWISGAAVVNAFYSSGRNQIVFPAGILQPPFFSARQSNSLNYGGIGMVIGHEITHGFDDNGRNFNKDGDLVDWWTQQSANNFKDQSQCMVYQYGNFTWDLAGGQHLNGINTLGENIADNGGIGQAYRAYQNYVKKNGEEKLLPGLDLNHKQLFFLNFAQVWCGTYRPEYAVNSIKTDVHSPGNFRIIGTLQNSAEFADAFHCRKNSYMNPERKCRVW
The experiment in a line: In vitro inhibitory activity against neutral endopeptidase (NEP).

The structures appear in SMILES notation. Some results are limits rather than exact numbers.

As a reminder, the IC50 is the concentration at which inhibition is half-maximal. The low end stands for greater potency in that assay, the high end for weaker potency in that assay.

In turn, `O=C(O)[C@H](Cc1ccc(-c2ccccc2)cc1)NCP(=O)(O)O` had an IC50 of 0.015 µM.
With `O=C(O)[C@@H](Cc1ccc(-c2ccccc2)cc1)NCP(=O)(O)O` the figure was more than 1 µM.
